{"source": "patent US11860166B2", "about": "(KOREA INSTITUTE OF SCIENCE AND TECHNOLOGY, priority 2019, dated 2024)", "system": "dopamine receptor D1", "details": "HEK293A cells, FIG. 4B", "data": [{"smiles": "CCCN1CCC[C@@H]2Cc3n[nH]cc3C[C@H]21", "note": "[quinpirole]", "values": [{"measurement": "response of the dopamine receptor D1 fluorescent biosensor (normalized intensity)", "result": "did not response"}]}]}
